Binding of CDR-mutated scFvs to a peptide of the spike HR2 region

Reference: Engelhart et al. 2022, doi:10.1038/s41597-022-01779-4. File: FLAb, binding data.

Target: peptide PDVDLGDISGINAS, taken from heptad repeat 2 (HR2) of SARS-CoV-2 spike.

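The library (AAYL52) carries one to three amino acid substitutions per variant, with no insertions or deletions. Affinity was read by AlphaSeq, a pooled yeast mating assay with surface-displayed partners. Mating (16 h, 30 °C) was followed by selection of diploids and sequencing of their barcodes. The ratio of observed to expected reads was calibrated, replicate by replicate, on BCL2-family standards whose Kd was known from biolayer interferometry. The assay was run in three technical replicates.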

Each scFv is VH, the linker GGGGSGGGGSGGGGS, VL, as in the parent Ab-95, and differs from it in the CDRs of the light chain only.
VH: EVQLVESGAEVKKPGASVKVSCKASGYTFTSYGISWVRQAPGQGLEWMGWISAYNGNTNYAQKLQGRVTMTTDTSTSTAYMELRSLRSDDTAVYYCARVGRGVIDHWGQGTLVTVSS
VL: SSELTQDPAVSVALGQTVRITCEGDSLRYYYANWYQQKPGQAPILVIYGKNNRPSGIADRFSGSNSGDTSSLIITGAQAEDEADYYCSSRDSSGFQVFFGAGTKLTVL

Substitutions are numbered in sequence along the VL above, starting at 1 (not Kabat). Numbers give log10(Kd / nM), so 0 is 1 nM and 3 is 1 µM. Smaller is tighter. The mean shown is taken over the replicates in which the pair was detected. A pair that was not seen in any replicate is written "no signal"; this usually means weak binding, but a binder can also be missed. Nonspecific signal, from three strains lacking the peptide, appeared in 28% of pairings of library AAYL52, centred on 3.91 (5% of these signals below 2.90); values are not corrected for it.

| changes | log10 Kd (nM), mean | replicates with signal |
|---|---|---|
| E23A+N33A+R90A | 5.64 | 1/3 |
| E23I+Y31E+R90L | 1.83 | 3/3 |
| N33F+S88A+F98T | no signal | 0/3 |
| K50S+N52E+S92C | 4.47 | 2/3 |
| Y30Q+S89P+V97N | 2.78 | 1/3 |
| L27H+R28W+Y30A | 3.32 | 2/3 |
| G24R+Y31I+S55H | 4.31 | 1/3 |
| G24D+S26D+A32S | no signal | 0/3 |
| G24E+R28N+R53D | 5.35 | 1/3 |
| Y30G+A32V+R90W | 3.09 | 1/3 |
| R28L+N52D+S93A | 3.22 | 3/3 |
| E23P+Y30A+R90F | no signal | 0/3 |
| E23A+Y30P+S88E | 2.28 | 3/3 |
| S89K+G94S+F95Q | 3.19 | 1/3 |
| N51T+N52L+R90H | 4.22 | 2/3 |
| S26A+K50R+S55E | 1.79 | 3/3 |
| A32N+S55K+V97I | 3.88 | 1/3 |
| S93G+F95E+F98V | no signal | 0/3 |
| S93M+V97S | 2.67 | 2/3 |
| G24I+D25F+S89T | no signal | 0/3 |
| R28K+K50C+S55Y | no signal | 0/3 |
| D25A+G49W+D91T | no signal | 0/3 |
| Y31H+S55D+G94M | 2.78 | 2/3 |
| Y30P+F95H+F98I | 4.02 | 2/3 |
| L27A+S93I+V97G | 3.09 | 1/3 |
| Y31F+K50C+G94W | 5.31 | 1/3 |
| D25G+N51D+F98V | 2.66 | 3/3 |
| S88K+S89Q+S93G | 3.38 | 3/3 |
| R28G+Y30W | 2.27 | 3/3 |
| N33D+R90T+F95P | 4.01 | 3/3 |
| N33K+G49K | no signal | 0/3 |
| G24K+Y29M+F95H | 3.46 | 1/3 |
| G24F+L27G+Y29N | 2.62 | 3/3 |
| P54T+S89A+S93E | 3.01 | 2/3 |

Second part, the sequence after the result:

| log10 Kd (nM), mean | replicates with signal | changes |
|---|---|---|
| 4.15 | 1/3 | D25Y+S55L+V97Q |
| no signal | 0/3 | R53M+V97Q |
| 3.76 | 3/3 | Y30R+N33F+F95A |
| 0.50 | 3/3 | E23D+Y30G+S92V |
| 3.62 | 2/3 | P54W+S55G+V97P |
| 4.72 | 1/3 | G24K+N33D+S88Q |
| no signal | 0/3 | G49R+N51M+D91P |
| 4.18 | 1/3 | D25S+S93C+Q96Y |
| 4.33 | 3/3 | N52K+S93H+G94W |
| no signal | 0/3 | A32P+K50R+R90N |
| no signal | 0/3 | Y29K+S88D+S89K |
| no signal | 0/3 | G24L+N52I+Q96W |
| 3.08 | 3/3 | P54H+F95A+V97N |
| no signal | 0/3 | Y30W+R53N+P54C |
| 1.70 | 3/3 | L27I+Y30G+V97P |
| 2.63 | 3/3 | S93P+F98W |
| 4.20 | 2/3 | A32I+S92Y+S93Y |
| 4.21 | 3/3 | Y29L+N52W+G94D |
| no signal | 0/3 | P54C+S92A+V97D |
| 4.85 | 3/3 | N33T+S92A+G94E |
| 4.96 | 2/3 | L27M+N33C+S55M |
| 5.37 | 1/3 | N33K+P54V+D91C |
| 4.72 | 1/3 | S26W+S92T+V97L |
| 3.13 | 2/3 | Y31S+N33P+K50N |
| 5.41 | 1/3 | A32S+D91E+F95C |
| 3.87 | 3/3 | E23F+S89H+D91E |
| 3.36 | 3/3 | G49H+K50D+F98M |
| 3.44 | 2/3 | G24I+N52H |
| 3.79 | 2/3 | E23F+N33L+D91R |
| 4.08 | 2/3 | R28M+Y31S+N51W |
| 3.68 | 3/3 | N51P+S55I+S93E |
| 3.65 | 2/3 | S26I+Y30H+S89E |
| 4.04 | 2/3 | E23K+S26K+S93R |
| 3.17 | 3/3 | Y31V+A32L+F95M |
| 4.54 | 2/3 | S26N+K50R+R53M |

The opening 8 entries, copied out:

{"changes": "E23A+N33A+R90A", "log10 Kd (nM), mean": "5.64", "replicates with signal": "1/3"}
{"changes": "E23I+Y31E+R90L", "log10 Kd (nM), mean": "1.83", "replicates with signal": "3/3"}
{"changes": "N33F+S88A+F98T", "log10 Kd (nM), mean": "no signal", "replicates with signal": "0/3"}
{"changes": "K50S+N52E+S92C", "log10 Kd (nM), mean": "4.47", "replicates with signal": "2/3"}
{"changes": "Y30Q+S89P+V97N", "log10 Kd (nM), mean": "2.78", "replicates with signal": "1/3"}
{"changes": "L27H+R28W+Y30A", "log10 Kd (nM), mean": "3.32", "replicates with signal": "2/3"}
{"changes": "G24R+Y31I+S55H", "log10 Kd (nM), mean": "4.31", "replicates with signal": "1/3"}
{"changes": "G24D+S26D+A32S", "log10 Kd (nM), mean": "no signal", "replicates with signal": "0/3"}